Experimental data taken from patent US20150284385A1 (published 2015).
Where two headings read alike, the source gives them in different places.

Protein sequences, listed by entry. Tags and fused reporters are not part of them. Residues count along the entry.
UniProt P28843, 37-760 limits assumed: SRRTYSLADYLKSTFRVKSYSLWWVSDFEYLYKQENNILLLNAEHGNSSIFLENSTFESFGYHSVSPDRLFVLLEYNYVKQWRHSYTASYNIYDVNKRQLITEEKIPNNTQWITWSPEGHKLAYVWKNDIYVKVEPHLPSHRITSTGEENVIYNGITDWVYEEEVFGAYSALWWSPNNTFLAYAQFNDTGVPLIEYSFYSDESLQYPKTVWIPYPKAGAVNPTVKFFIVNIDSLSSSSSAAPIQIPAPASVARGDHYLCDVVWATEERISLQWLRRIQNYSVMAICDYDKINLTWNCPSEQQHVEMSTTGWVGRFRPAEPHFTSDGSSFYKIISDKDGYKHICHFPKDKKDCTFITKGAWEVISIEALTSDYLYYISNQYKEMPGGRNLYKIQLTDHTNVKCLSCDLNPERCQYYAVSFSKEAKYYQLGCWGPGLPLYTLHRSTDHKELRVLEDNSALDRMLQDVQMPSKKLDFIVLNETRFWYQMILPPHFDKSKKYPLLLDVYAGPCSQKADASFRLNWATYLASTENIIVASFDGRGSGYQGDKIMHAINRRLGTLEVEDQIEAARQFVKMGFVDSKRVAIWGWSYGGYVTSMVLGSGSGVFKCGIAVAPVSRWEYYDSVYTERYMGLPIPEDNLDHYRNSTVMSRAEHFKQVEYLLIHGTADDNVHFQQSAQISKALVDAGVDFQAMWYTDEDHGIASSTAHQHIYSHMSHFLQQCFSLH

Target: DPP-4 (Mus musculus, UniProt P28843)
Test: Plasma DPP-4 activity in mice after oral dosing
Type: in vivo, ICR mice

Structure (SMILES): N[C@@H](CC(=O)N1CCn2c(nnc2C(F)(F)F)C1)Cc1cc(F)c(F)cc1F [MK0431, reference compound]
- activity at 1 mg/kg (read-out: DPP-4 Relative activity %, Table 3, mice plasma, oral 1 mg/kg, 1 h after dosing): 58.3 ± 8.4%
- activity at 1 mg/kg (read-out: DPP-4 Relative activity %, Table 3, mice plasma, oral 1 mg/kg, 2 h after dosing): 59.9 ± 4%
- activity at 1 mg/kg (read-out: DPP-4 Relative activity %, Table 3, mice plasma, oral 1 mg/kg, 4 h after dosing): 60.8 ± 9.8%
- activity at 1 mg/kg (read-out: DPP-4 Relative activity %, Table 3, mice plasma, oral 1 mg/kg, 6 h after dosing): 79.5 ± 4.1%
- activity at 1 mg/kg (read-out: DPP-4 Relative activity %, Table 3, mice plasma, oral 1 mg/kg, 9 h after dosing): 89.5 ± 5.9%
- activity at 1 mg/kg (read-out: DPP-4 Relative activity %, Table 3, mice plasma, oral 1 mg/kg, 12 h after dosing): 93.5 ± 6.5%
- activity at 1 mg/kg (read-out: DPP-4 Relative activity %, Table 3, mice plasma, oral 1 mg/kg, 24 h after dosing): 102 ± 6.6%
- activity at 1 mg/kg (read-out: DPP-4 Relative activity %, Table 4 Test 1, mice plasma, oral 1 mg/kg, 1 h after dosing): 58.3 ± 8.4%
- activity at 1 mg/kg (read-out: DPP-4 Relative activity %, Table 4 Test 1, mice plasma, oral 1 mg/kg, 2 h after dosing): 59.9 ± 4%
- activity at 1 mg/kg (read-out: DPP-4 Relative activity %, Table 4 Test 1, mice plasma, oral 1 mg/kg, 4 h after dosing): 60.8 ± 9.8%
- activity at 1 mg/kg (read-out: DPP-4 Relative activity %, Table 4 Test 1, mice plasma, oral 1 mg/kg, 6 h after dosing): 79.5 ± 4.1%
- activity at 1 mg/kg (read-out: DPP-4 Relative activity %, Table 4 Test 1, mice plasma, oral 1 mg/kg, 9 h after dosing): 89.5 ± 5.9%
- activity at 1 mg/kg (read-out: DPP-4 Relative activity %, Table 4 Test 1, mice plasma, oral 1 mg/kg, 12 h after dosing): 93.5 ± 6.5%
- activity at 1 mg/kg (read-out: DPP-4 Relative activity %, Table 4 Test 1, mice plasma, oral 1 mg/kg, 24 h after dosing): 102 ± 6.6%
- activity at 1 mg/kg (read-out: DPP-4 Relative activity %, Table 4 Test 2, mice plasma, oral 1 mg/kg, 1 h after dosing): 59 ± 2.9%
- activity at 1 mg/kg (read-out: DPP-4 Relative activity %, Table 4 Test 2, mice plasma, oral 1 mg/kg, 2 h after dosing): 61.3 ± 4.5%
- activity at 1 mg/kg (read-out: DPP-4 Relative activity %, Table 4 Test 2, mice plasma, oral 1 mg/kg, 4 h after dosing): 62.8 ± 5.5%
- activity at 1 mg/kg (read-out: DPP-4 Relative activity %, Table 4 Test 2, mice plasma, oral 1 mg/kg, 6 h after dosing): 67.1 ± 2.4%
- activity at 1 mg/kg (read-out: DPP-4 Relative activity %, Table 4 Test 2, mice plasma, oral 1 mg/kg, 9 h after dosing): 81 ± 4.3%
- activity at 1 mg/kg (read-out: DPP-4 Relative activity %, Table 4 Test 2, mice plasma, oral 1 mg/kg, 12 h after dosing): 78.7 ± 2.1%
- activity at 1 mg/kg (read-out: DPP-4 Relative activity %, Table 4 Test 2, mice plasma, oral 1 mg/kg, 24 h after dosing): 95.3 ± 5.8%
- activity at 1 mg/kg (read-out: DPP-4 Relative activity %, Table 4 Test 3, mice plasma, oral 1 mg/kg, 1 h after dosing): 60.1 ± 2.6%
- activity at 1 mg/kg (read-out: DPP-4 Relative activity %, Table 4 Test 3, mice plasma, oral 1 mg/kg, 2 h after dosing): 54.4 ± 1.2%
- activity at 1 mg/kg (read-out: DPP-4 Relative activity %, Table 4 Test 3, mice plasma, oral 1 mg/kg, 4 h after dosing): 57.6 ± 3.3%
- activity at 1 mg/kg (read-out: DPP-4 Relative activity %, Table 4 Test 3, mice plasma, oral 1 mg/kg, 6 h after dosing): 60.9 ± 3.8%
- activity at 1 mg/kg (read-out: DPP-4 Relative activity %, Table 4 Test 3, mice plasma, oral 1 mg/kg, 9 h after dosing): 70.2 ± 4.6%
- activity at 1 mg/kg (read-out: DPP-4 Relative activity %, Table 4 Test 3, mice plasma, oral 1 mg/kg, 12 h after dosing): 72.9 ± 2.4%
- activity at 1 mg/kg (read-out: DPP-4 Relative activity %, Table 4 Test 3, mice plasma, oral 1 mg/kg, 24 h after dosing): 94 ± 7%
- activity at 3 mg/kg (read-out: DPP-4 Relative activity %, mice plasma, oral 3 mg/kg, 1 h after dosing): 43.9 ± 1.9%
- activity at 3 mg/kg (read-out: DPP-4 Relative activity %, mice plasma, oral 3 mg/kg, 2 h after dosing): 45.7 ± 1.2%
- activity at 3 mg/kg (read-out: DPP-4 Relative activity %, mice plasma, oral 3 mg/kg, 3 h after dosing): 46.9 ± 1.4%
- activity at 3 mg/kg (read-out: DPP-4 Relative activity %, mice plasma, oral 3 mg/kg, 5 h after dosing): 60.9 ± 2.8%
